Laboratory results taken from PubChem BioAssay AID588499 (NMMLSC, 2011).
Among all 360,000 compounds or so, about 610 (0.17%) were called active. The source calls these results inconclusive, neither active nor inactive. Cut-off read from the data, not from the text of the source: active = inhibition above about 30%; inconclusive = no clear call, values can overlap the other calls; inactive = below that.

System: Botulinum neurotoxin type A light chain protease (Clostridium botulinum A str. ATCC 3502)
Assay: BoNT/A light chain protease inhibitors, primary screen, biochemical, flow cytometry, MLPCN library (AID 588499); note: plate controls were buffer without enzyme for full effect and enzyme alone for no effect
Conditions: multiplex microsphere protease substrate cleavage, at 10 µM, active compounds read high

| Structure (SMILES) | inhibition |
| --- | --- |
| Clc1n[nH]nc1-c1nn[nH][15n]1 | inconclusive: -490% |
| O=P1(Nc2ccc(Br)cn2)COc2ccccc2OC1 | inconclusive: 1.8% |
